Laboratory results reported in PubChem BioAssay AID493056 (National Center for Advancing Translational Sciences (NCATS), 2011).
Only a part is listed here, and it is no random draw. The source made the active and inactive calls. Rule as the data show it: active = enhancement above about 30%; inactive = the rest.

Protein sequences, listed by entry. Tags and fused reporters are not part of them.
UniProt P34981, whole entry: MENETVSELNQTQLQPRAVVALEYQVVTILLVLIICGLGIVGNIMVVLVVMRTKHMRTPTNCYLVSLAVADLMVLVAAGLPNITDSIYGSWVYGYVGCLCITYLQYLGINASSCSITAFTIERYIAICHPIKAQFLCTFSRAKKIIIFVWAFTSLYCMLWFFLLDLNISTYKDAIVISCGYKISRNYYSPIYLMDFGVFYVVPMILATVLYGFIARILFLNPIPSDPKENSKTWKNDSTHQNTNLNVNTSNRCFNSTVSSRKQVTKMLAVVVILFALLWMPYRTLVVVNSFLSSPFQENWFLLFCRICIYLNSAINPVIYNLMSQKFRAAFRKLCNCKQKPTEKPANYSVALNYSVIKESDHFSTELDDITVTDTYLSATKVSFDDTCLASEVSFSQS

Biological target: Thyrotropin-releasing hormone receptor (Homo sapiens) (UniProt P34981)
Assay: qHTS for Small Molecule Agonists and Allosteric Enhancers of Human TRH Receptor: Primary Screen for Enhancers; also: 0% is about no effect
Details: TRHR cells, fluo-8 calcium fluorescence, EC20 TRH enhancement; at 2 µM; hits give high values
Method in brief: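 Enhancer read-out: after compound pinning and an initial kinetic agonist-mode read, an EC20 of TRH (10 nM final) was injected and fluo-8 calcium signal (Ex 480/Em 530) followed at 1 s/cycle for 100 cycles in TRHR-expressing cells.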

Question: Which enhancement does the source give for `CCc1ccc(OP(C)(=O)Nc2cccnc2)cc1` (configuration not stated) here?
Answer: The enhancement was inactive: -1.46%.

Question: With `COc1ccccc1OP(C)(=O)Nc1ccccc1Br` (configuration not stated) as the molecule, how does the enhancement read?
Answer: Its enhancement is inactive: -1.64%.

Question: With `CC(C)(C)c1ccc(OP(C)(=O)O)cc1` as the molecule, how does the enhancement read?
Answer: The enhancement was inactive: -10.2%.

Question: `CP(=O)(Nc1ccc(Cl)cc1)Oc1ccc(F)cc1` (configuration not stated) was tested. Which enhancement did it give?
Answer: The enhancement was inactive: 6.95%.

Question: Which enhancement does the source give for `CN(C)C(=O)c1c([N+](=O)[O-])cc([N+](=O)[O-])cc1[N+](=O)[O-]` here?
Answer: The enhancement was inactive: -2.33%.

Question: Which enhancement does the source give for `CP(=O)(Nc1ccc(SC(F)(F)F)cc1)Oc1ccc(F)cc1` (configuration not stated) here?
Answer: The enhancement was inactive: 12.3%.

Question: With `CCOP(C)(=S)SCC(=O)NC(C)(CC)C(=O)O` (configuration not stated) as the molecule, how does the enhancement read?
Answer: Its enhancement is inactive: -1.09%.

Question: `CP(=O)(Nc1ccc2c(c1)OCCO2)Oc1ccccc1` (configuration not stated) was tested. Which enhancement did it give?
Answer: Its enhancement is inactive: -0.369%.

Question: How did the enhancement turn out when `Cc1ccccc1NP(C)(=O)Nc1ccccc1C` was run?
Answer: The enhancement was inactive: 0.592%.

Question: How did the enhancement turn out when `COc1ccc(OP(C)(=O)Nc2cccc(Br)c2)cc1` (configuration not stated) was run?
Answer: The enhancement was inactive: -0.827%.

Question: Which enhancement does the source give for `CN(C)CCOC(=O)C(O)(c1ccccc1)C1CCCCC1` (configuration not stated) here?
Answer: Its enhancement is inactive: -4.87%.

Question: For `COc1ccc(NP(C)(=O)Oc2ccccc2OC)cc1` (configuration not stated), which enhancement is on record?
Answer: Its enhancement is inactive: 1.86%.

Question: How did the enhancement turn out when `O=[N+]([O-])c1ccc(OP2(=O)COCCO2)cc1` (configuration not stated) was run?
Answer: Its enhancement is inactive: 7.86%.

Question: How did the enhancement turn out when `Cc1cc(-c2cccc3ccccc23)c(C)cn1.O=[N+]([O-])c1cc([N+](=O)[O-])c(O)c([N+](=O)[O-])c1` was run?
Answer: The enhancement was inactive: -2.14%.

Question: How did the enhancement turn out when `CCOC(=O)c1ccc(NP(C)(=O)Oc2ccc(F)cc2)cc1` (configuration not stated) was run?
Answer: Its enhancement is inactive: 15.6%.

Question: `COc1ccc(OP(C)(=O)Nc2ccc(SC(F)(F)F)cc2)cc1` (configuration not stated) was tested. Which enhancement did it give?
Answer: The enhancement was inactive: 2.68%.

Question: For `CCN(CC)CCCOC(=O)C(O)(c1ccccc1)C1CCCCC1` (configuration not stated), which enhancement is on record?
Answer: The enhancement was inactive: -15.5%.

Question: With `CP(=O)(Nc1ccccc1)Oc1ccc(F)cc1` (configuration not stated) as the molecule, how does the enhancement read?
Answer: The enhancement was inactive: 2.03%.

Question: `CCCCCOc1ccc(NP(C)(=O)Oc2ccc(Cl)cc2Cl)cc1` (configuration not stated) was tested. Which enhancement did it give?
Answer: The enhancement was inactive: -3.1%.

Question: `CP(=O)(Nc1ccccc1F)Oc1ccccc1` (configuration not stated) was tested. Which enhancement did it give?
Answer: Its enhancement is inactive: -6.25%.

Question: With `CC(C)c1ccc(OP(C)(=O)Nc2ccc(SC(F)(F)F)cc2)cc1` (configuration not stated) as the molecule, how does the enhancement read?
Answer: The enhancement was inactive: 1.68%.

Question: `O=C(OCCN1CCN(CCOCc2ccccc2)CC1)C(O)(c1ccccc1)c1ccccc1` was tested. Which enhancement did it give?
Answer: The enhancement was inactive: -1.86%.
